For two molecules, solubility results are on record in patent publication US8436185B2, “Pharmaceutically acceptable salts of 2-{4-[(3S)-piperidin-3-yl]phenyl}-2H-indazole-7-carboxamide” (Merck Sharp & Dohme Corp., priority 2008, dated 2013).

This data set in a line: physchem.

Each structure is given as a SMILES string.

Regarding `Cc1ccc(S(=O)(=O)O)cc1.NC(=O)c1cccc2cn(-c3ccc([C@@H]4CCCNC4)cc3)nc12` [Example 1, (3S)-3-{4-[7-(Aminocarbonyl)-2H-indazol-2-yl]phenyl}piperidinium 4-methylbenzenesulfonate], the solubility amounted to 800 µg/mL.

The molecule `Cl.NC(=O)c1cccc2cn(-c3ccc([C@@H]4CCCNC4)cc3)nc12` [Chloride salt, (3S)-3-[4-[7-(Aminocarbonyl)-2H-indazol-2-yl]phenyl]piperidinium chloride] gave a solubility above 20000 µg/mL.

In general, solubility refers to how much of the substance goes into solution per volume. Low readings indicate little dissolved substance, high ones much dissolved substance.
